One compound from patent US20130324439A1, “Elastic Modulus-modified MicroEnvironment microArrays (eMEArrays) and Uses Thereof” (The Regents of the University of California, priority 2012, published 2013) can be followed below.

In this series the test system is HER2+ breast cancer cell line HCC1569. Nature of the series: EdU incorporation (DNA synthesis) of HCC1569 on 2D tissue culture plastic, PA gels of tuned elastic modulus or 3D Matrigel.

As to `O=S(=O)(c1cccc2c(I)cccc12)N1CCCNCC1` [ML-7], the “Effect of lapatinib and ML-7 together on cells atop 2D TC plastic or compliant PA gels” value was “synergistic and toxic effect”.
